Measured values as given in patent publication US11912717B2, “Crystal form of tenvermectin B, preparation method therefor, and use thereof” (Shenzhen Tenver Biopharm Co., Ltd., priority 2018, dated 2024).

Assay: Stability test (accelerated experiment, sealed PE/aluminum foil bags, 40±2° C., humidity 75±5%)

## tenvermectin B [crystal form I of tenvermectin B]
After a storage of 6 months, 40±2° C., humidity 75±5%
  stability on storage (in words): basically stable
Comparison of amorphous and crystal form I
  stability (general statement, in words): much better than that of amorphous tenvermectin B
Stability experiment
  degradation in the stability experiment: no degradation
